Assay [1] concerns the target 3',5'-cyclic-AMP phosphodiesterase 4B (Homo sapiens, UniProt Q07343). Put plainly: Inhibition of human recombinant PDE4B at high-affinity rolipram binding site.
Assay [2] deals with 3',5'-cyclic-AMP phosphodiesterase 4D (Homo sapiens, UniProt Q08499). Put plainly: Inhibition of human PDE4D using [3H]cAMP by packard topcount scintillation counting analysis.

By UniProt entry, the sequences of proteins in these tests, tags left out. Where a name states a change or a piece, a line headed by the entry shows the natural chain unless it says otherwise.
UniProt Q07343: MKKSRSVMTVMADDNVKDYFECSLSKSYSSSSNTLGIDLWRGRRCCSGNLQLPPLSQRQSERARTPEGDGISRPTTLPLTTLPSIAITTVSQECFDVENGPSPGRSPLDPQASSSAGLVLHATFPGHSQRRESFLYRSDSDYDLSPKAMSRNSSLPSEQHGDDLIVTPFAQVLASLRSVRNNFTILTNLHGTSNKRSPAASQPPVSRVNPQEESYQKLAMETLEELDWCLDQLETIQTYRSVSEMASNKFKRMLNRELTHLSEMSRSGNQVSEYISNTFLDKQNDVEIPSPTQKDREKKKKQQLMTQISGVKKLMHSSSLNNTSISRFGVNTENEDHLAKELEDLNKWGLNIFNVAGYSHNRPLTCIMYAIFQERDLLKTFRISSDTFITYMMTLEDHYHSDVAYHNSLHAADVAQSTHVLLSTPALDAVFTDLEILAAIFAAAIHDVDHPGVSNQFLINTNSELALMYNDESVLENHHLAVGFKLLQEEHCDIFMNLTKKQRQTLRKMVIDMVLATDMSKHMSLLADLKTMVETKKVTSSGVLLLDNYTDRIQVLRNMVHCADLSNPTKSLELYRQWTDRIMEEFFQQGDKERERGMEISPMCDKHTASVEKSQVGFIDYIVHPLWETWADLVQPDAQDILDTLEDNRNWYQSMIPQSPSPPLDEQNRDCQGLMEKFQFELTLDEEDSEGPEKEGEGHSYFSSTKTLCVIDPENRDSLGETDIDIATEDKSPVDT
UniProt Q08499: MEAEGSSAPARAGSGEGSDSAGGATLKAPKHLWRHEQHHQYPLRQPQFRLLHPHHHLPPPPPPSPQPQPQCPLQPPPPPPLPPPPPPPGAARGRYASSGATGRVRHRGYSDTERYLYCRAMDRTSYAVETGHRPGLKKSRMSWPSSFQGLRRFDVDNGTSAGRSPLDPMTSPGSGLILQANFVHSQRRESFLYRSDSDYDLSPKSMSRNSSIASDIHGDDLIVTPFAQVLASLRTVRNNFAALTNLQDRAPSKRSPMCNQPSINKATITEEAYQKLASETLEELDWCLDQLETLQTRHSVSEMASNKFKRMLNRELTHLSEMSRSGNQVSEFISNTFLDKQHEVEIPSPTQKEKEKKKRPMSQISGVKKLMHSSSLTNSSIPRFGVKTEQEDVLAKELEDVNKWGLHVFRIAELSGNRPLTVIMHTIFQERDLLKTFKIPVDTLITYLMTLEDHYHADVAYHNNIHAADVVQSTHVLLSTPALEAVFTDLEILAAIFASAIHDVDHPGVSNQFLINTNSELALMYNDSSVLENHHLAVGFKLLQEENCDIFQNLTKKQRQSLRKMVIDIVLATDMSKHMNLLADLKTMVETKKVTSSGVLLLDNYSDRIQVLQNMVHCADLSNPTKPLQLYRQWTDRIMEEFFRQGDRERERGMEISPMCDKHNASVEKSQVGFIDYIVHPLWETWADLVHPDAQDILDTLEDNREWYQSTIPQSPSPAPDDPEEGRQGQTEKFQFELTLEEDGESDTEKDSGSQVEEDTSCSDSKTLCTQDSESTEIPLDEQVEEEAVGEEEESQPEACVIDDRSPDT

We go through 1 molecule from ChEMBL document CHEMBL3286180, “Efficacious inhaled PDE4 inhibitors with low emetic potential and long duration of action for the treatment of COPD” (J Med Chem, 2014).

pIC50: −log10 of the molar value. A value given as a limit tells only on which side of the number the result lay.

Take `Cc1ccc(O)c(C(=O)N[C@H]2CC[C@@H](NC(=O)c3cc(F)cnc3Oc3cccc(-c4ccc(CN5C[C@@H](C)N[C@@H](C)C5)cc4CN4CCOCC4)c3)CC2)c1`: the pIC50 was over 8.00 in assay [1] and 10.70 in assay [2].
